# Ab-14 heavy chain CDR variants: yeast mating affinities

From the AlphaSeq antibody data of Li et al. 2023 (doi:10.1038/s41467-023-39022-2), copy in the FLAb collection.

The target is the same throughout: PDVDLGDISGINAS, from the HR2 region of SARS-CoV-2 spike.

Ab-14 is the parent antibody, in scFv form: VH, then the linker GGGGSGGGGSGGGGS, then VL. The light chain is unchanged in all variants.
VH: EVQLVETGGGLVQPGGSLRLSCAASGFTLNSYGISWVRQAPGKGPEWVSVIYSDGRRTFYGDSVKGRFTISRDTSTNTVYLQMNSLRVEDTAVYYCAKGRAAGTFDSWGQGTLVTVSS
VL: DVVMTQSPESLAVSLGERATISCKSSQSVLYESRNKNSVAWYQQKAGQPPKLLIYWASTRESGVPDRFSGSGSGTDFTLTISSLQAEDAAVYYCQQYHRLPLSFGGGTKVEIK

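Designed CDR sequences, proposed from the first random library and measured here. Group labels follow the data file (Rand: our label for a block that the file lists under HC and that is probably the random mutants of the ten best first-round binders; En: ensemble of fine-tuned language models; HC: hill climbing; Gen: genetic algorithm; Gibbs: Gibbs sampling; a sequence that several methods proposed may carry one label only). AlphaSeq pools MATa yeast showing the antibodies with MATalpha yeast showing the peptide. After mating in shaken culture at 30 °C for 16 h, diploids were selected and their barcode pairs sequenced. The ratio of observed to expected reads was calibrated, replicate by replicate, on BCL2-family standards whose Kd was known from biolayer interferometry. There are six technical replicates.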

Each variant is given by its three heavy chain CDRs, as the data file delimits them; those of the parent are GFTLNSYGIS, VIYSDGRRTFYGDSVK, GRAAGTFDS.
Variants here have more than six changes.
Values are log10 of the apparent Kd in nM; lower means stronger binding.
An entry "nd" has no value in the source: the pair was not observed among the diploids in that replicate. This suggests poor binding but is not conclusive.

With GFSLGEYGIS | VIYADGVRRSYADKVK | GKNGAFSLV [En_Gibbs] the result was nd, nd, nd, nd, nd, nd. For GFNLDEYGIS | VIYADGMRTAFGDNVK | GTNFGFTVF [En_Gibbs], the assay gave nd, nd, nd, nd, nd, nd. For GFDLTEYGIS | VIYADGRRTAYQDSVK | GLNGGMLVV [En_Gibbs], the assay gave nd, nd, nd, nd, nd, nd. For GPSLDEYGIS | VIYADGVRQQYADDVK | GQIGNFVNY [En_Gibbs], the assay gave nd, nd, nd, nd, nd, nd. With GFDLNEYGIS | VIYADGRRTFYTDSVK | GTNAGTFDM [En_HC] the result was -0.07, -0.37, -0.39, -0.40, -0.50, -0.37. Variant GMDLSEYGIS | VIYADGMRTYASDSVK | GDHGGNLLY [En_Gibbs] gave nd, nd, nd, nd, 2.36, nd. For GFDLEQYGIS | VIYADGVRTAYSQNSK | GDDGIALDI [En_Gibbs], the assay gave nd, nd, nd, nd, nd, nd.

Variant GFDLNEYGIS | VIYADGMRKFYADDVK | GNVAGTFDV [En_Gen] showed -0.89, -0.16, -0.53, -1.03, -0.85, -0.68. Variant GFDLEKYGIS | VIYADGIRKVYDQSVK | GQMAGTFTV [En_Gibbs] showed 1.02, 1.35, 0.22, 0.68, 0.71, 0.38. With GFDLNEYGIS | VIYADGRRTAYIDSVK | GEVAGTFDT [En_HC] the result was -0.14, -0.28, -0.51, -0.53, -0.49, -0.16. Variant GFDLDEYGIS | VIYADGKRTAYADSVK | GNEAGTFDI [En_Gen] gave 0.24, -0.53, -0.66, 0.22, -0.27, -0.14. With GFNLDEYGIS | VIYADGRRTFYADSVK | GNHAGTFDT [En_HC] the result was 0.52, 0.33, 0.71, 1.55, 0.14, -0.12. For GFKIDEYGIS | VIYADGMRTQYADKVK | VGHDGYVLQ [En_Gibbs], the assay gave nd, nd, nd, nd, nd, nd. Variant GFDLNEYGIS | VIYADGRRKAYADSVK | GNTAGTFDV [En_HC] gave 0.89, 0.91, 0.53, 0.48, 2.18, 0.39.

Variant GFQLNSWQIS | VIYADGRRTFYGDSVK | GRGAGTNKS [Rand] showed nd, nd, nd, nd, nd, nd. Variant GFDLDEYGIS | VIYADGMRTFYTDSVK | GEAAGTFDL [En_HC] gave 0.24, -0.16, 0.09, -0.14, -0.05, 0.42. Variant GFDLNEYGIS | VIYADGRRTAYADDVK | GETAGTFDQ [En_Gen] gave -0.26, -0.22, -0.45, -0.52, -0.70, -0.59. Variant GFDLDEYGIS | VIYADGMRTAYADSVK | GNVAGTFDA [En_Gen] showed -0.17, -0.07, -0.33, -0.50, -0.03, -0.33. Variant GFDLDEYGIS | VIYADGRRTAYADSVK | GNTAGTFDM [En_Gen] showed -0.61, -0.69, -1.00, -0.82, -0.51, -0.60. With GFNLDEYGIS | VIYADGRRTFYADSVK | GEEAGTFDT [En_HC] the result was 0.91, 0.06, -0.03, -0.05, 0.23, 0.62. For GFTKDSYGIW | VIYSDGRIAFYGDSVK | GRAAGTALS [Rand], the assay gave nd, nd, nd, 2.29, nd, nd.

Variant GFDVEEYGIS | VIYADGRRSSYSQSVK | GHYSGTIYV [En_Gibbs] gave nd, nd, nd, nd, nd, nd. Variant GFVLDEYGIS | VIYADGKRQVYQDKVK | GENTGNFDT [En_Gibbs] gave 1.57, 1.24, 2.10, 2.66, nd, 2.01. Variant GFDLGEYGIS | VIYADGRRKGYSDAVK | GINSINVTD [En_Gibbs] gave nd, -0.12, 0.66, 0.48, 0.44, 0.12. Variant GFDLNEYGIS | VIYADGRRTFYSDSVK | GENAGFFDK [En_HC] gave nd, nd, nd, nd, nd, 2.24. Variant GFNLSEYGIS | VIYADGNRTYYAPNVK | GQFNDVLNM [En_Gibbs] showed nd, nd, nd, nd, 1.85, nd. Variant GFDLNEYGIS | VIYADGRRTAYADSVK | GKIAGTFNV [En_HC] gave -0.40, -0.45, -0.66, -0.52, -0.41, -0.40. With GFDLNEYGIS | VIYADGMRTFYADSVK | GEAAGTFDQ [En_HC] the result was 0.57, 0.09, 0.84, 0.65, 0.53, 0.04.

Variant GFDLDEYGIS | VIYADGRRTFYADSVK | GSNAGTFDI [En_HC] showed -0.23, -0.30, -0.63, -0.64, -0.60, -0.54. Variant GFNFDEYGIS | VIYADGMRRAYVDEVK | GSHSDVFNM [En_Gibbs] gave nd, nd, nd, nd, nd, nd. For GFDLNEYGIS | VIYADGMRTSYADSVK | GEVAGTFDQ [En_Gen], the assay gave -0.55, -0.51, -0.58, -0.74, -0.48, -0.21. With GFDLNEYGIS | VIYADGRRTAYTDSVK | GGNAGTFDS [En_HC] the result was -0.23, -0.54, -0.40, -0.57, -0.60, -0.29. With GFDLNEYGIS | VIYADGRRTAYTDSVK | GHEAGTFDL [En_HC] the result was -0.29, nd, -0.57, 0.06, -0.03, 0.40. Variant GFDVNEYGIS | VIYADGVRRTYADAVK | GKLSGVVDV [En_Gibbs] gave nd, nd, nd, nd, nd, nd. With GFDLNEYGIS | VIYADGMRTFYADSVK | GNNAGTFDQ [En_Gen] the result was 0.42, -0.15, -0.01, -0.61, -0.18, -0.08.

For GFDLNEYGIS | VIYADGIRTAYADSVK | GENAGTFDI [En_Gen], the assay gave 0.39, 0.02, 0.61, -0.39, nd, -0.09. Variant GFDLNEYGIS | VIYADGVRTAYADTVK | GNVAGTFDV [En_Gen] gave -0.51, -0.43, -0.62, -0.70, -0.54, -0.62. For GMNLDEYGIS | VIYADGMRNAYRDTVK | GAHSGGLVT [En_Gibbs], the assay gave nd, nd, nd, nd, nd, nd. Variant GFSLDEYGIS | VIYADGRRTAYQDDVK | GNVAGTFDV [En_HC] showed nd, 0.30, -0.26, nd, nd, -0.30. For GFDLNEYGIS | VIYADGLRTAYADDVK | GEVAGTFDV [En_Gen], the assay gave -0.09, -0.66, -0.54, -0.17, -0.26, -0.38. Variant GFNLDEYGIS | VIYADGKRTAYADSVK | GEVAGTFDL [En_Gen] showed -0.16, -0.47, -0.61, -0.32, -0.57, -0.35. For GFDLDEYGIS | VIYADGSRTAYADSVK | GTNAGTFDV [En_Gen], the assay gave 0.18, -0.05, 0.41, 0.18, 0.37, 0.74.

With GFDLDEYGIS | VIYADGMRTYYADSVK | GENAGTFDT [En_Gen] the result was -0.17, -0.11, 0.01, -0.46, -0.30, -0.03. Variant GFDLNEYGIS | VIYADGRRTAYSDSVK | GEAAGTFDA [En_HC] showed nd, nd, nd, nd, nd, nd. Variant GFDLNEYGIS | VIYADGRRTSYVDSVK | GQVAGTFDV [En_HC] gave -0.94, -0.98, -0.35, -0.83, -1.00, -0.58. With GFSLDEYGIS | VIYADGQRTFYADSVK | GNVAGTFDS [En_HC] the result was -0.99, -0.93, -1.10, -1.36, -1.47, -1.00.

A selection of 7 entries from above:

CDR-H1,CDR-H2,CDR-H3,group,"replicates, log10 nM"
GFDLDEYGIS,VIYADGMRTYYADSVK,GENAGTFDT,En_Gen,"-0.17, -0.11, 0.01, -0.46, -0.30, -0.03"
GFDLNEYGIS,VIYADGMRTFYADSVK,GEAAGTFDQ,En_HC,"0.57, 0.09, 0.84, 0.65, 0.53, 0.04"
GFDLNEYGIS,VIYADGRRTAYIDSVK,GEVAGTFDT,En_HC,"-0.14, -0.28, -0.51, -0.53, -0.49, -0.16"
GFDLNEYGIS,VIYADGMRTSYADSVK,GEVAGTFDQ,En_Gen,"-0.55, -0.51, -0.58, -0.74, -0.48, -0.21"
GFDLDEYGIS,VIYADGMRTAYADSVK,GNVAGTFDA,En_Gen,"-0.17, -0.07, -0.33, -0.50, -0.03, -0.33"
GFSLGEYGIS,VIYADGVRRSYADKVK,GKNGAFSLV,En_Gibbs,"nd, nd, nd, nd, nd, nd"
GFDLDEYGIS,VIYADGKRTAYADSVK,GNEAGTFDI,En_Gen,"0.24, -0.53, -0.66, 0.22, -0.27, -0.14"

Background: pairings of all heavy chain designs with three empty control strains gave a value in 1% of cases (median 2.08, 5th percentile 0.84). Values in that range, when seen in few replicates, are hard to tell from nonspecific mating.
A sequence measured in both rounds can read differently, since the two assays cover different ranges.
The parent sequence was in this pool as ten entries: three were never detected, three once, and four in most replicates, with averages from 0.34 to 2.37.
The authors averaged sequences with at least three values out of six and counted those with two or fewer as poor binders.